Test [1] addresses Gastrin/cholecystokinin type B receptor (Homo sapiens, UniProt P32239, S131T/V130T). Nature of the test: Displacement of [125I-CCK] from human CCK2R V3.28T, S3.29T mutant expressed in CHO cells after 60 mins by scintillation counter. The format is cell-based.
The target in test [2] is T1, Cholecystokinin receptor type A (Homo sapiens, UniProt P32238). Nature of the test: Displacement of [125I-BDZ-1] from human CCK1R I6.51V, F6.52Y mutant expressed in CHO cells after 60 mins by scintillation counter. It is filed as cell-based.
For test [3], the target named is Gastrin/cholecystokinin type B receptor (Homo sapiens, UniProt P32239, H376L). Description: Displacement of [125I-CCK] from human CCK2R H7.39L mutant expressed in CHO cells after 60 mins by scintillation counter. It is filed as cell-based.
The target in test [4] is T2, Gastrin/cholecystokinin type B receptor (Homo sapiens, UniProt P32239).
T2 sequence (P32239 whole entry): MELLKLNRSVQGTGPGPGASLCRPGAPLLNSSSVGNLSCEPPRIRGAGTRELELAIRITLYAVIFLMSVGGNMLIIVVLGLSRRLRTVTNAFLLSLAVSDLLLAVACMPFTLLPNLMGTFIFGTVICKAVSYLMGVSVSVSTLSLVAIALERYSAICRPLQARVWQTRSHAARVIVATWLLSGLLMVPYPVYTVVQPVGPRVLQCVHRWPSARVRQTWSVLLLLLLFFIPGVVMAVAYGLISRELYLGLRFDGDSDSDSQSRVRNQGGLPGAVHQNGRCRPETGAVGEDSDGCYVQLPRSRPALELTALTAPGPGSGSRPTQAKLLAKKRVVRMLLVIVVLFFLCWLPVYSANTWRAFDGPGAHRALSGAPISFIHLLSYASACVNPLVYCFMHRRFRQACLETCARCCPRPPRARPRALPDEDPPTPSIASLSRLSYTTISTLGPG
Nature of the test: Displacement of [125I-CCK] from wild-type human CCK2R expressed in CHO cells after 60 mins by scintillation counter. The format is cell-based.

Chains of the proteins cited; added tags and fusions are not shown. Lines headed by an entry give the natural chain unless they say otherwise; changes in a name come on top.
UniProt P32238, whole entry, looked up: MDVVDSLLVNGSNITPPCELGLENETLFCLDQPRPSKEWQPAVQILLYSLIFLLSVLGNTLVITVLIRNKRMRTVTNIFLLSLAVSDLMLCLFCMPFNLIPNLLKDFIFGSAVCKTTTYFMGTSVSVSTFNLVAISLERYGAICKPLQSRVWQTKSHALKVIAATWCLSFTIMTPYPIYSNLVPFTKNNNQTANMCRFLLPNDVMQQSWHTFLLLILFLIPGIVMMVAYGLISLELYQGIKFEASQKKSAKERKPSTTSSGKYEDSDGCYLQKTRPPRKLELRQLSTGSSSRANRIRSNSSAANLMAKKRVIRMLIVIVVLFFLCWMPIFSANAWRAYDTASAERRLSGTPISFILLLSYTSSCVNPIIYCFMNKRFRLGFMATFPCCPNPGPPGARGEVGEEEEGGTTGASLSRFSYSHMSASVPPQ
UniProt P32238, whole entry V125A: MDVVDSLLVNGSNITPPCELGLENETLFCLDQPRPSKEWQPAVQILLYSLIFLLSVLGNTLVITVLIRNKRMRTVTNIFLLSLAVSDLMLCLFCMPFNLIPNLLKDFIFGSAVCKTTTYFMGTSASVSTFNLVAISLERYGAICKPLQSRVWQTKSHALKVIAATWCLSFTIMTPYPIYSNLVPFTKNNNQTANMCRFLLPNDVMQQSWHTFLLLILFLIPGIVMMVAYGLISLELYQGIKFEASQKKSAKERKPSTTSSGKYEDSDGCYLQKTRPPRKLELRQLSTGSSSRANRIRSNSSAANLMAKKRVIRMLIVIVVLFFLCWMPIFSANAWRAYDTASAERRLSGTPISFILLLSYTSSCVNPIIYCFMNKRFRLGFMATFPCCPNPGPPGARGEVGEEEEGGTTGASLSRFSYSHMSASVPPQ
UniProt P32238, whole entry T117V/T118S: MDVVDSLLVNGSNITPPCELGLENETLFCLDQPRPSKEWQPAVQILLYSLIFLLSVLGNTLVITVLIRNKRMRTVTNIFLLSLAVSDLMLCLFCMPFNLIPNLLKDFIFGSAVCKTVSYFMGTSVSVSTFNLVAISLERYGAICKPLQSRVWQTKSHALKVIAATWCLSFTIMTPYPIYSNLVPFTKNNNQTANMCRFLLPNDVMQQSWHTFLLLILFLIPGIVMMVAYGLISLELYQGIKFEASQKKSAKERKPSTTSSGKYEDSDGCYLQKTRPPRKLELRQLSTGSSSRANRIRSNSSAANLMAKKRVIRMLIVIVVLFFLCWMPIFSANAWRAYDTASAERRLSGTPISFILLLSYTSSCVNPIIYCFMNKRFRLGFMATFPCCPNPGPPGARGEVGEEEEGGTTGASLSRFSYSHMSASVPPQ
UniProt P32238, whole entry N98T: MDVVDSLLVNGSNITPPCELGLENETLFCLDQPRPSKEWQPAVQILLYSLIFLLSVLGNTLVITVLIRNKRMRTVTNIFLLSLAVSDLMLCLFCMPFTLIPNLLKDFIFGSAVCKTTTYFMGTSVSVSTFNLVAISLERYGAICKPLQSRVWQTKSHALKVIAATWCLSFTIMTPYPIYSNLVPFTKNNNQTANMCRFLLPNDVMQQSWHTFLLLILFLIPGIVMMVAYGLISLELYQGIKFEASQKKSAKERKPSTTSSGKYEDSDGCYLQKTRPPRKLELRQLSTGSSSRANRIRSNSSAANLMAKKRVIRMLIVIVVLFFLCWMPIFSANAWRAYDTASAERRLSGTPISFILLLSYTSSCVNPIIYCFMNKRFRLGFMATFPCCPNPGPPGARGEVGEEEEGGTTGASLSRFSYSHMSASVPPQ
UniProt P32238, whole entry W326A: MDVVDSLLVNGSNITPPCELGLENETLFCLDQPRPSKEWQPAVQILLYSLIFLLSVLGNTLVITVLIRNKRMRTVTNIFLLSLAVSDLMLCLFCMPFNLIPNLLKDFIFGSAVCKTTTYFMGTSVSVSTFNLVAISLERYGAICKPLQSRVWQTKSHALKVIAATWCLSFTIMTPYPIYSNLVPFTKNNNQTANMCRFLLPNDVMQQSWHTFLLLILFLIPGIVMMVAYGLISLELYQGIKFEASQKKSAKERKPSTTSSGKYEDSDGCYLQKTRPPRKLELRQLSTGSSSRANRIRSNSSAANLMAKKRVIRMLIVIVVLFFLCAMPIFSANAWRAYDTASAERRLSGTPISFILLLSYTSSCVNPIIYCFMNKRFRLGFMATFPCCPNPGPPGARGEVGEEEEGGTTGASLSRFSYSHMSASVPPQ
UniProt P32238, whole entry M121A: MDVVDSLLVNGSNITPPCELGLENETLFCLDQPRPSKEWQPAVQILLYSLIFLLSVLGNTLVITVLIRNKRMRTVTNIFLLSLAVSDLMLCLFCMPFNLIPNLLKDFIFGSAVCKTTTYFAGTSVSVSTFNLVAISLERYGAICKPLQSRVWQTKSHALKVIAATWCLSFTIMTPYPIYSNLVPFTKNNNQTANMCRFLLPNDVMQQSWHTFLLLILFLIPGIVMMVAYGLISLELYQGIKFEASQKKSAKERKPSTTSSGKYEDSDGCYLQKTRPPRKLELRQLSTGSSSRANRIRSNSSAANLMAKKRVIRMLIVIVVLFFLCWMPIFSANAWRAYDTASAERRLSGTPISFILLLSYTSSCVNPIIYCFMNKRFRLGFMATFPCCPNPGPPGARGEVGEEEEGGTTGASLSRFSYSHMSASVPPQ
UniProt P30551: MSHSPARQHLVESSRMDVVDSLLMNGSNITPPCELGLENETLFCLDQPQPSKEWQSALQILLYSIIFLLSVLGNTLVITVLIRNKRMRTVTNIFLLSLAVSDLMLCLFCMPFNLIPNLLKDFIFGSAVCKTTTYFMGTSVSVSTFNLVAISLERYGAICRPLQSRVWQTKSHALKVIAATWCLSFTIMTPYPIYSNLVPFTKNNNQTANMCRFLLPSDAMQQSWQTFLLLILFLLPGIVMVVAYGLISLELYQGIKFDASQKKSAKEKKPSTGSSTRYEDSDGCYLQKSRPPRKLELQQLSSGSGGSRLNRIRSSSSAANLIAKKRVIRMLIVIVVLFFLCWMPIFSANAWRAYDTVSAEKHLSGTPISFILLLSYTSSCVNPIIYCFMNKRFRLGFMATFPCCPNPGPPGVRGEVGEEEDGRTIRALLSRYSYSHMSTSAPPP
UniProt P30553: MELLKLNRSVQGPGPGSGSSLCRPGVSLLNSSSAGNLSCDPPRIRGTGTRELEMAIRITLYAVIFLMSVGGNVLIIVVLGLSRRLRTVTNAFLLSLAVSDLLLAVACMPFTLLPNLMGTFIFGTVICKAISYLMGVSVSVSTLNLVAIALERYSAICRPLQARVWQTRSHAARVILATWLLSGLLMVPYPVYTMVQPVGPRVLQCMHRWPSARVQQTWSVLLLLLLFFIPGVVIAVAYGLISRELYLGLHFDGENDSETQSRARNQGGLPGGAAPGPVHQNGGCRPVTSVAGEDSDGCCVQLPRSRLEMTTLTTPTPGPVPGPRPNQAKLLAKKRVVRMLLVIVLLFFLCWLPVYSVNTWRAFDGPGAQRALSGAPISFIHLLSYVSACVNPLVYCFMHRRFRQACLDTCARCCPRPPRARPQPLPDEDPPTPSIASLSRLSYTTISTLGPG

The target of test [5] is Cholecystokinin receptor type A (Homo sapiens, UniProt P32238, V125A). Description: Displacement of [125I-BDZ-1] from human CCK1R V3.36A mutant expressed in CHO cells after 60 mins by scintillation counter. It is filed as cell-based.
The target in test [6] is T1, Cholecystokinin receptor type A. Nature of the test: Agonist activity at human CCK1R I6.51V, F6.52Y mutant expressed in CHO cells assessed as intracellular calcium response by fluorescence analysis. The format is functional, cell-based.
For another test, the target named is Cholecystokinin receptor (Rattus norvegicus, UniProt P30551+P30553). Description: Displacement of [125I]-BDZ-1 from rat CCK1R Ala-317,321,325 non dimerizing mutant expressed in COS cells after 60 mins by scintillation counter. The format is cell-based.
The target of test [7] is T3, Cholecystokinin receptor type A (Homo sapiens, UniProt P32238, T117V/T118S). Description: Agonist activity at human CCK1R T3.28V, T3.29S mutant expressed in CHO cells assessed as intracellular calcium response by fluorescence analysis. It is filed as functional, cell-based.
Test [8] has as its target Cholecystokinin receptor type A (Homo sapiens, UniProt P32238, N98T). Description: Displacement of [125I-CCK] from human CCK1R N2.61T mutant expressed in CHO cells after 60 mins by scintillation counter. It is filed as cell-based.
Test [9] deals with T4, Cholecystokinin receptor type A (Homo sapiens, UniProt P32238, W326A). Nature of the test: Displacement of [125I-BDZ-1] from human CCK1R W6.48A mutant expressed in CHO cells after 60 mins by scintillation counter. The format is cell-based.
In test [10] the target is T1, Cholecystokinin receptor type A. Nature of the test: Displacement of [125I-CCK] from human CCK1R I6.51V, F6.52Y mutant expressed in CHO cells after 60 mins by scintillation counter. It is filed as cell-based.
For test [11], the target named is T2, Gastrin/cholecystokinin type B receptor. Nature of the test: Partial agonist activity at wild-type human CCK2R expressed in CHO cells assessed as intracellular calcium response by fluorescence analysis. It is filed as functional, cell-based.
For test [12], the target named is T3, Cholecystokinin receptor type A. Nature of the test: Displacement of [125I-CCK] from human CCK1R T3.28V, T3.29S mutant expressed in CHO cells after 60 mins by scintillation counter. It is filed as cell-based.
For test [13], the target named is T4, Cholecystokinin receptor type A. Description: Displacement of [125I-CCK] from human CCK1R W6.48A mutant expressed in CHO cells after 60 mins by scintillation counter. It is filed as cell-based.
The target of test [14] is T3, Cholecystokinin receptor type A. Description: Displacement of [125I-BDZ-1] from human CCK1R T3.28V, T3.29S mutant expressed in CHO cells after 60 mins by scintillation counter. The format is cell-based.
Test [15] deals with T1, Cholecystokinin receptor type A. Nature of the test: Agonist activity at wild-type human CCK1R expressed in CHO cells assessed as intracellular calcium response by fluorescence analysis. The format is functional, cell-based.
The target in test [16] is Cholecystokinin receptor type A (Homo sapiens, UniProt P32238, M121A). Nature of the test: Displacement of [125I-CCK] from human CCK1R M3.32A mutant expressed in CHO cells after 60 mins by scintillation counter. It is filed as cell-based.
Test [17] has as its target T1, Cholecystokinin receptor type A. Nature of the test: Agonist activity at human CCK1R N2.61T mutant expressed in CHO cells assessed as intracellular calcium response by fluorescence analysis. The format is functional, cell-based.

The results in this text go back to ChEMBL document CHEMBL3745693, “Molecular Mechanism of Action of Triazolobenzodiazepinone Agonists of the Type 1 Cholecystokinin Receptor. Possible Cooperativity across the Receptor Homodimeric Complex” (J Med Chem, 2015).

SMILES strings stand for the structures.

Turning to `Cc1cc(C)cc(C[C@H]2CCCCN2C(=O)CN2C(=O)[C@@H](Cc3n[nH]c4ccccc34)c3nnc(-c4ccccc4)n3-c3ccccc32)c1`, the IC50 in test [1] was 302 nM; in [3], 7.59 nM; in test [5], 955 nM; at Cholecystokinin receptor, 17.02 nM; in test [8] it was 0.813 nM; in test [9], 61.7 nM. For the same compound, the pIC50 in [2] was determined as 6; in test [10], 7.15. Moreover, in test [4], affinity was put at a Ki of 1410 nM. Moreover, the negative-log EC50 (pEC50) in test [6] is on record as 7.16. In addition, the EC50 in test [7] was 0.12 nM.
With `CC(C)N(Cc1ccccc1)C(=O)CN1C(=O)[C@@H](Cc2c[nH]c3ccccc23)c2nnc(-c3ccccc3)n2-c2ccccc21` [CE-326597], the IC50 in [1] is 209 nM; in [12] it was 37.2 nM; in test [13], 41.7 nM; in test [14], 4.47 nM; at Cholecystokinin receptor it was 25 nM; in test [16], 166 nM. In addition, the results for the pIC50 in test [2] and in test [10] were 6 and 7.37, respectively. In addition, the EC50 was 1000 nM in test [11], 1.8 nM in test [15] (read-out: EC50), 1.51 nM in test [15] (read-out: pEC50 (converted)) and 1.38 nM in test [7]. Further, the negative-log EC50 (pEC50) in [6] was found to be 7.38; in test [17], 9.28.
